# Patent publication US20060183677A1, “Novel exendin agonist formulations and methods of administration thereof” (priority 2002, published 2006)
# System: Sprague-Dawley rats
# Assay: Insulinotropic action during intravenous glucose challenge in rats (Example 5)
substance,measurement,setting,value
GLP-1[7-36]NH2,increase in plasma insulin concentration with the glucose challenge,30 pmol/kg/min i.v.,2.9 fold
same,peak plasma insulin concentration after the glucose challenge,30 pmol/kg/min i.v.,1145 ± 169 pM
same,plasma glucose concentration before glucose injection,30 pmol/kg/min i.v. infusion,10.3 ± 0.4 mM
